Literature values as cited in patent US8450266B2, “Analogues of glucose-dependent insulinotropic polypeptide” (Ipsen Pharma S.A.S., priority 2008, dated 2013).

Conditions: unmodified GIP; Said and Mutt, 1970; cited from earlier work

In the case of “Glucose-dependent insulinotropic polypeptide [GIP]”, the in vivo half-life is listed as “about 2 minutes”.
